p53 reactivator: restores transcriptional activity of mutant p53. H1299 p53-A138V BP100-luciferase reporter, luminescence, 24 h. Potency, µM (series often up to 92.2 µM), most hits filed as activators. 320,000 compounds, 0.063% hits. AID 504706; further: nearly all actives have a fitted effect of over 45% in size
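H1299 (p53-null), stable ts p53-A138V + BP100-Luc; 1000 cells/well, Opti-MEM/10% FBS; cpd 4 pt, 1:5; 24 h, 37 deg C, 5% CO2; detection reagent 10 min RT; luminescence.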
Nrf2 activator: activates Nrf2 signaling | AREc32 ARE-luciferase reporter (MCF7-derived line), luminescence, 24 h | Potency, µM (top dose mostly 46.1 µM), usual class: activators | 410,000 compounds, 0.31% hits | AID 624171; further: nearly all actives have a fitted effect of over 65% in size
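Nrf2 activation is followed as ARE-luciferase induction in the AREc32 line after one day of compound treatment; luminescence is read with Steady-Glo.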
ClpP mod: qHTS Assay for Activators of ClpP. ATP-dependent Clp protease proteolytic subunit (Bacillus subtilis (strain 168)), P80244. purified B. subtilis ClpP, FRET peptide cleavage, 20 min. Potency, µM (highest dose often 57.5 µM). 340,000 compounds, 1.9% hits. AID 651965, 2013; active means well fitted falling curve with a large enough effect; inconclusive means small, poorly fitted or top-dose-only effect; inactive means no such curve, though single readings can be large or run the other way; further: the source files actives as falling curves though it sought activators and does not explain the sign; nearly all actives have a fitted effect of over 65% in size
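Purified B. subtilis ClpP, 10 microg/mL final in Tris/HCl pH8 with KCl, BSA, glycerol and Tween-20, cleaved an Abz/nitrotyrosine-quenched decapeptide. Fluorescence (ex 320, em 430) was read at 0 and 20 min at room temperature. Delta was normalized to 5.8 microM ADEP and DMSO/no-enzyme controls.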
miR-21 reporter: raises the signal of a miR-21 reporter | Potency, µM (doses to about 38.3 µM) | HeLa miR-21 FLuc reporter, luciferase, 48 h | AID 2288 | 340,000 tested, under 10 active; active = well fitted rising curve with a large enough effect; inconclusive = small, poorly fitted or top-dose-only effect; inactive = no such curve, though single readings can be large or run the other way;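 also: miR-21 action dims this reporter so a rising signal means less miR-21 action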
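HeLa cells endogenously expressing miR-21, stably carrying CMV-driven firefly luciferase with a downstream miR-21 binding site, 2000 cells/well. Titrations up to approximately 40 uM, 48 hours; luciferase luminescence read.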
Nrf2 block: blocks Nrf2 signaling; Potency, µM (titrated, usually from 46 µM), most hits filed as inhibitors; 360,000 compounds, 2.1% hits; A549 ARE-Fluc reporter, luciferase luminescence, 18-24 h; further: nearly all actives have a fitted effect of over 60% in size
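Two sequential reads on A549 ARE_Fluc cells exposed to compound for 18-24 h: a CellTiter-Fluor fluorescence read for viability, then a luciferase luminescence read for Nrf2/ARE activity.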
A549 tox-1: kills or reduces viability of A549 cells in Nrf2 counter-screen | 390,000 compounds, 0.16% hits | A549 ARE-Fluc cells, CellTiter-Fluor viability, 18-24 h | Potency, µM (titrated, usually from 46 µM), actives largely listed as inhibitors
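Cytotoxicity counterscreen: CellTiter-Fluor fluorescence was measured in A549 ARE_Fluc cells after 18-24 h of compound exposure in a concentration series. The subsequent BugLite luminescent read reports ARE-luciferase activity.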
FLuc counter 3: blocks purified firefly luciferase in Nrf2 counterscreen | shares compounds with Nrf2 block | purified firefly luciferase, luminescence inhibition | Potency, µM (titrated, usually from 57.5 µM), usual class: inhibitors | 1,400 compounds, 4% hits; further: nearly all actives have a fitted effect of over 65% in size
A549 tox-2: A549 cytotoxicity, Nrf2 inhibitor counterscreen | shares compounds with Nrf2 block | A549 ARE-Fluc cells, cytotoxicity counterscreen | Potency, µM (highest dose often 46.1 µM), hits mostly inhibitors | 1,400 compounds, 2% hits | AID 720523;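 further: cells exposed to compounds for 18 to 24 hours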
Nrf2 ARE inh: Nrf2 inhibition confirmed, A549 ARE-luciferase; shares compounds with Nrf2 block; A549 ARE-firefly luciferase reporter, luminescence; Potency, µM (highest dose often 46.1 µM), actives largely listed as inhibitors; 1,400 compounds, 74% hits; AID 720524; further: nearly all actives have a fitted effect of over 65% in size
Numbers stand for hits; i = inactive; ? = inconclusive; nt = not tested or not shown. This is a sample that favours compounds with a hit; in the whole collection about 3.7% have one here. Unless noted, the call rests on the fitted dose curve; in most records, active means well fitted curve in the direction sought with a large enough effect; inconclusive means small, poorly fitted or top-dose-only effect, or another doubt; inactive means no such curve, though single readings can be large; an effect the other way counts as inactive or inconclusive.

SMILES	p53 reactivator	Nrf2 activator	ClpP mod	miR-21 reporter	Nrf2 block	A549 tox-1	FLuc counter 3	A549 tox-2	Nrf2 ARE inh
COc1cc(NC(=O)CSc2nc(-c3ccco3)cc(C(F)(F)F)n2)cc(OC)c1OC	nt	i	i	i	9.2µM	i	i	i	?
CCCc1nn2c(=O)cc(COC(=O)C3CCCCC3)nc2s1	nt	i	i	i	i	i	nt	nt	nt
Cc1cc(/C=C(\C#N)C(=O)Nc2ccccc2)c(C)n1-c1ccc(F)cc1	nt	i	i	i	i	i	nt	nt	nt
Cc1cc(C(=O)O)ccc1-n1c(C)cc(/C=C(/C#N)C(=O)Nc2ccccc2)c1C	i	i	nt	i	5.8µM	i	i	i	?
Nc1nncn1C(=O)c1ccccc1Cl	i	i	i	i	i	i	nt	nt	nt
Nc1nncn1C(=O)c1ccc(Cl)cc1Cl	i	i	i	i	1.6µM	i	i	i	nt
CCc1ccccc1NC(=O)CN1C(=O)c2ccccc2Sc2ncccc21	nt	i	i	?	i	i	nt	nt	nt
O=C(c1ccc(S(=O)(=O)Nc2ccc(F)cc2)cc1)N1CCN(c2ccccn2)CC1	i	i	nt	i	2.9µM	?	i	i	15µM
Cc1ccc(NS(=O)(=O)c2ccc(C(=O)N3CCN(c4ncccn4)CC3)cc2)cc1	i	i	nt	i	5.8µM	?	i	i	8.2µM
O=C(c1ccc(NS(=O)(=O)c2ccc(F)cc2)cc1)N1CCCCC1	i	i	i	nt	i	i	nt	nt	nt
CS(=O)(=O)N(CC(=O)NCCSc1ccccc1)c1cc(C(F)(F)F)ccc1Cl	nt	i	i	i	i	i	nt	nt	nt
COc1cccc(-c2nnc3n2N=C(C(C)(C)C)CS3)c1	i	i	i	?	7.3µM	i	i	?	nt
CCOC(=O)N1CCN(S(=O)(=O)c2ccc(C(=O)NNc3nc4c(C)cccc4s3)cc2)CC1	i	i	i	i	?	i	nt	nt	nt
CCOC(=O)N1CCN(S(=O)(=O)c2ccc(C(=O)NNc3nc4ccc(Cl)cc4s3)cc2)CC1	?	i	i	i	5.8µM	?	i	i	7.3µM
Cc1cccc2sc(NNC(=O)c3ccc(S(=O)(=O)N4CCc5ccccc5C4)cc3)nc12	?	i	i	i	?	i	i	i	6.5µM
O=C(NCc1cccnc1)C1CCN(Cc2cc3ccccc3n2Cc2cccc(Cl)c2)CC1	nt	i	i	i	nt	i	nt	nt	nt
CC(NNC(=S)N1CCN(c2ccccn2)CC1)c1nccc2ccccc12 (stereo not given)	nt	i	i	nt	5.8µM	?	i	?	?
Cc1ccc(Cc2c(-c3ccc(Cl)cc3)nc3cc(C)ccn23)cc1	nt	i	i	nt	nt	nt	nt	nt	nt
COc1ccc(/C=C/c2ccccn2)cc1	nt	nt	i	nt	nt	nt	i	i	2.3µM
CCOc1ccccc1NC(=O)c1cnc2n(c1=O)CCS2	i	i	i	i	i	i	nt	nt	nt
O=C(Nc1ccc(Oc2ccccc2)cc1)c1cnc2n(c1=O)CCS2	i	i	i	i	?	i	i	i	2.3µM
Cc1ccc(C)c(S(=O)(=O)NCC(=O)OCC(=O)Nc2sccc2C(N)=O)c1	i	i	i	nt	i	i	nt	nt	nt
CCOC(=O)N1CCN(C(=O)c2ccc3c(=O)n(Cc4ccc(Cl)cc4)c(=S)[nH]c3c2)CC1	i	i	i	i	?	i	nt	nt	nt
CCOC(=O)N1CCN(C(=O)c2ccc(Cn3c(=S)[nH]c4ccc(Br)cc4c3=O)cc2)CC1	i	i	nt	i	4.1µM	?	i	?	8.2µM
O=C(C1CCC(Cn2c(=O)c3sccc3n(Cc3ccccc3F)c2=O)CC1)N1CCOCC1 (stereo not given)	nt	i	i	i	i	i	nt	nt	nt

From PubChem
